Assay results: US11806555B2, “Methods for treating hair loss disorders” (THE TRUSTEES OF COLUMBIA UNIVERSITY IN THE CITY OF NEW YORK, priority 2010, dated 2023)

Tested on: telogen hair follicles of normal C57BL/6 mice
Assay: induction of anagen by topical treatment of normal mice in telogen
Conditions: mouse, in vivo

`N#CCC(C1CCCC1)n1cc(-c2ncnc3[nH]ccc23)cn1` (centres unmarked) [INCB018424] was tested, and the “number of hair follicles vs vehicle treated” value was “greater” and the “thickness of hair follicles vs vehicle treated” value was “greater”.
